Source: US10072011B2, “Substituted bridged urea analogs as sirtuin modulators” (GlaxoSmithKline Intellectual Property (No.2) Limited, priority 2014, dated 2018)

Target: T1, SIRT1 (Homo sapiens, UniProt Q96EB6)
T1 sequence (Q96EB6 1-747): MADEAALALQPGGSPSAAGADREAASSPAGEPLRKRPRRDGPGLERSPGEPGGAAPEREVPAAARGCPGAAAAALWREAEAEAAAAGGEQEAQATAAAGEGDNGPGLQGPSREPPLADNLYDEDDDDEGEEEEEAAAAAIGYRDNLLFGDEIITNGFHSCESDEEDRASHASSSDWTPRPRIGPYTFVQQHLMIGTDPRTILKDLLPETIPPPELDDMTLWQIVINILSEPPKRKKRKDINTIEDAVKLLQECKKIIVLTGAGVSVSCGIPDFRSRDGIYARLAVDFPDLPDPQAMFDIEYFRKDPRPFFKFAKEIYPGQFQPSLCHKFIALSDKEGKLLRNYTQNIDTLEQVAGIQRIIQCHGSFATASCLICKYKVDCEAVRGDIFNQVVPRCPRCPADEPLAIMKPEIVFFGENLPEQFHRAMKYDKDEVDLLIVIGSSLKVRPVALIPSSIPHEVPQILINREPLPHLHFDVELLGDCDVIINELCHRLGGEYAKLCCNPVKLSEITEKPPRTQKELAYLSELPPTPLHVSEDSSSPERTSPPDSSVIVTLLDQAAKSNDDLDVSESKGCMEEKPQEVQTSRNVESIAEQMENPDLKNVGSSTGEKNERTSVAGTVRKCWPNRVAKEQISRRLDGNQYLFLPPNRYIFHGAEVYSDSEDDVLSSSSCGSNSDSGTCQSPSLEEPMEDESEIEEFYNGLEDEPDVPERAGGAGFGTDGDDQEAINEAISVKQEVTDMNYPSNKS
Test: Trp mass spectrometry assay of SIRT1 activation (Ac-R-H-K-K(Ac)-W-NH2 peptide)
Format: biochemical
Details: for Emax: 25 min, read-out: TRP MAX RESP (percent maximum fold activation); for TRP Activity (EC1.5, concentration of test compound that results in 150% activation of SIRT1): Trp peptide 0.5 μM, 120 μM βNAD+, 10 nM SIRT1, 25 min at 25° C.
Description: The Trp mass spectrometry assay was conducted as follows. […] The SIRT1 protein was obtained by cloning the SirT1 gene into a T7-promoter containing vector, which was then expressed in BL21(DE3) bacterial cells and purified as described in further detail below. Test compound was added at varying concentrations to this reaction mixture and the resulting reactions were monitored. After the 25 minute incubation with SIRT1, 10 μL of 10% formic acid was added to stop the reaction. The resulting reactions were sealed and frozen for later mass spec analysis. The relative SIRT1 activity was then determined by measuring the amount of O-acetyl-ADP-ribose (OAADPR) formed (or, alternatively, the amount of deacetylated Trp peptide generated) by the NAD-dependent sirtuin deacetylation reaction in the presence of varying concentrations of the test compound versus control reactions lacking the test compound. The degree to which the test agent activated deacetylation by SIRT1 was expressed as EC1.5 (i.e., the concentration of compound required to increase SIRT1 activity by 50% over the control lacking test compound), and Percent Maximum Activation (i.e., the maximum activity relative to control (100%) obtained for the test compound).
This time point was the same as that used for test compounds and, within the linear range, the endpoint represents a change in velocity.
For the above assay, SIRT1 protein was expressed and purified as follows. The SirT1 gene was cloned into a T7-promoter containing vector and transformed into BL21(DE3). The protein was expressed by induction with 1 mM IPTG as an N-terminal His-tag fusion protein at 18° C. overnight and harvested at 30,000×g. Cells were lysed with lysozyme in lysis buffer (50 mM Tris-HCl, 2 mM Tris[2-carboxyethyl]phosphine (TCEP), 10 μM ZnCl2, 200 mM NaCl) and further treated with sonication for 10 min for complete lysis. The protein was purified over a Ni-NTA column (Amersham) and fractions containing pure protein were pooled, concentrated and run over a sizing column (Sephadex S200 26/60 global). The peak containing soluble protein was collected and run on an Ion-exchange column (MonoQ). Gradient elution (200 mM-500 mM NaCl) yielded pure protein. This protein was concentrated and dialyzed against dialysis buffer (20 mM Tris-HCl, 2 mM TCEP) overnight. The protein was aliquoted and frozen at −80° C. until further use.
“NT” means not tested; “ND” means not determinable.

Structure (SMILES)	Emax	TRP Activity (EC1.5, concentration of test compound that results in 150% activation of SIRT1)
C[C@@H](NC(=O)c1ccc2c(n1)N(C(=O)Nc1cc(C(=O)N(C)C)ccn1)[C@H]1CCN2C1)C(F)(F)F [Example 150, (4S)—N5-(4-(dimethylcarbamoyl)pyridin-2-yl)-N7-((R)-1,1,1-trifluoropropan-2-yl)-3,4-dihydro-1,4-methanopyrido[2,3-b][1,4]diazepine-5,7(2H)-dicarboxamide]	> 150%	B (EC1.5 1-25 μM)
CN(C)C(=O)c1ccc2c(n1)N(C(=O)Nc1ccccn1)[C@H]1CCN2C1 [Example 258, (4S)—N7,N7-dimethyl-N5-(pyridin-2-yl)-3,4-dihydro-1,4-methanopyrido[2,3-b][1,4]diazepine-5,7(2H)-dicarboxamide]	< 150%	C (EC1.5>25 μM)
